The values that follow come from patent US20190055512A1, “METHODS AND COMPOSITIONS FOR SUBSTITUTING MEMBRANE LIPIDS IN LIVING CELLS” (The Research Foundation for The State University of New York, priority 2016, published 2019).

The series deals with A549 cells. Kind of series: Cell morphology (cell rounding) and cell condition during incubation with MαCD and lipids.

With Methyl-α-cyclodextrin [MαCD], under “MαCD alone”, the “incubation time after which cells were sensitive” value is listed as “about 15 minutes” and the “time to rounding up of cells” value is on record as no more than 15 min. Further, the “incubation time at which normal morphology begins to change” value (no lipid, 40 mM MαCD) is “≈15′”.
